Values joined by “and” are separate entries in the source; they are usually repeats but may differ in a detail not shown here. Equal entries are not always repeated. The list shows a part of the results, in another mix than the full data. Some of these compounds have results that are not shown, active ones among them. Records with an inconclusive call do not appear. Active and inactive are the calls of the source. Calls come from the whole dose curve; as a rule, active = well fitted inhibition curve with a large enough effect; inconclusive = small, poorly fitted or top-dose-only effect; inactive = no such curve, though single readings can be large or run the other way.

By UniProt entry, the sequences of proteins in these tests, tags left out.
UniProt P83916, whole entry: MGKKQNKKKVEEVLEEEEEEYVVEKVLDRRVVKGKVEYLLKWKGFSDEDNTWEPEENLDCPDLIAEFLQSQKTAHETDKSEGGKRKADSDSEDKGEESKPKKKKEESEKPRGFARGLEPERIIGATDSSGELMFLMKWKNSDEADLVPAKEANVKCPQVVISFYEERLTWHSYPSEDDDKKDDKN

The test has as its target Chromobox protein homolog 1 (Homo sapiens) (UniProt P83916). Put plainly: HTS for Inhibitors of HP1-beta Chromodomain Interactions with Methylated Histone Tails. Note: nearly all actives have a fitted effect of over 70% in size. The settings on record: AlphaScreen HP1-beta / biotin-H3K9me3 peptide binding; at 114 µM (top of the series). A general note: In Alpha technology, singlet oxygen from a donor bead excites a nearby acceptor bead.
Consider `CN(C)C1(CNC(=O)c2ccc(Br)cc2)CCCCC1`, for which the activity change, negative = inhibition is inactive: -0.237%. `COc1cc(C(=O)NCC2(N(C)C)CCCCC2)c([N+](=O)[O-])cc1OC`: the activity change, negative = inhibition is inactive: 16.2%.

Turning to `COc1ccc(Cl)cc1C(=O)NCC1(N(C)C)CCCCC1`, the activity change, negative = inhibition is inactive: 19.1%.

Regarding `COc1cccc(C(=O)NCC2(N3CCCCC3)CCCCC2)c1`, the activity change, negative = inhibition was inactive: 9.76%. For the compound `COc1ccc(C(=O)NCC2(N(C)C)CCCCC2)cc1Cl`, the activity change, negative = inhibition is inactive: 35.2%. Regarding `O=C(NCC1(N2CCCCC2)CCCCC1)c1cccc(Cl)c1`, the activity change, negative = inhibition is inactive: 1.86%. As for `COc1cccc(C(=O)NCC2(N3CCOCC3)CCCCC2)c1`, the activity change, negative = inhibition is inactive: 41.3%.

Regarding `O=C(OC1CN2CCC1CC2)C(CO)(c1ccccc1)c1ccccc1` (centres undefined), the activity change, negative = inhibition is inactive: 11.6%.

For the compound `CC(C)COc1ccc(C(=O)NCC2(N(C)C)CCCCC2)cc1`, the activity change, negative = inhibition was inactive: 34.7%.

For `COc1ccc(Br)c(C(=O)NCC2(N3CCCCC3)CCCCC2)c1`, the activity change, negative = inhibition was inactive: 21%. With `COc1cc(C(=O)NCC2(N(C)C)CCCCC2)cc(OC)c1OC`, the activity change, negative = inhibition is inactive: 53.1%. With `Cc1cccc(C(=O)NCC2(N(C)C)CCCCC2)c1` the figure was inactive: 30.9%; with `O=C(OCCN1CCCC1)C(O)(c1ccccc1)c1ccccc1`, inactive: 20.1%; with `CC(C)Oc1ccc(C(=O)NCC2(N(C)C)CCCCC2)cc1`, inactive: 7.15% and inactive: 10.9%. With `CN(C)c1cccc(C(=O)NCC2(N(C)C)CCCCC2)c1` the figure was inactive: 4.63%. In the case of `O=C(NCC1(N2CCCCC2)CCCCC1)c1cc([N+](=O)[O-])ccc1Cl`, the activity change, negative = inhibition was inactive: 12.2%. With `CN1[C@@H]2CC[C@H]1CC(OC(=O)C(O)(c1ccccc1)c1ccccc1)C2` (some centres undefined), the activity change, negative = inhibition was inactive: 34.1%. In the case of `COc1cc(SC)ccc1C(=O)NCC1(N(C)C)CCCCC1`, the activity change, negative = inhibition is inactive: 20.4%. On to `CN(C)C1(CNC(=O)c2cccc(Cl)c2)CCCCC1`, for which the activity change, negative = inhibition was inactive: 59.5%. With `CCN(CC)CC(C)C(C)OC(=O)C(O)(c1ccccc1)c1ccccc1` (centres undefined) the figure was inactive: 12.8%.

Take `CC(C)N1C(=O)CC2(CCN(CCOC(=O)C(O)(c3ccccc3)c3ccccc3)CC2)C1=O`: the activity change, negative = inhibition is inactive: 32.4%. `Cc1ccc(C(=O)NCC2(N3CCCCC3)CCCCC2)cc1`: the activity change, negative = inhibition was inactive: 9.76%.

Regarding `CN(C)C1(CNC(=O)c2ccccc2F)CCCCC1`, the activity change, negative = inhibition was inactive: 45.6%.

`CN(C)c1ccc(C(=O)NCC2(N(C)C)CCCCC2)cc1`: the activity change, negative = inhibition is inactive: 1.66%. With `Cc1ccccc1C(=O)NCC1(N2CCCCC2)CCCCC1` the figure was inactive: 27.2%; with `CN(C)C1(CNC(=O)c2ccccc2[N+](=O)[O-])CCCCC1`, inactive: 50.8%. As for `CCCCOc1ccccc1C(=O)NCC1(N(C)C)CCCCC1`, the activity change, negative = inhibition is inactive: 30.2%.

Turning to `O=C(NCC1(N2CCCCC2)CCCCC1)c1cc(F)c(F)cc1Cl`, the activity change, negative = inhibition is inactive: 10.2%.

Consider `C=CCN1CCN(CCOC(=O)C(O)(c2ccccc2)c2ccccc2)CC1`, for which the activity change, negative = inhibition was inactive: 32.2%. With `CCOc1cccc(C(=O)NCC2(N(C)C)CCCCC2)c1`, the activity change, negative = inhibition is inactive: 37.9%.

Regarding `COc1ccc(C(=O)NCC2(N(C)C)CCCCC2)cc1`, the activity change, negative = inhibition was inactive: 17.8%. In the case of `O=C(NCC1(N2CCCCC2)CCCCC1)c1cccc(Br)c1`, the activity change, negative = inhibition was inactive: -25.1%. Turning to `CCN1CCCC(OC(=O)C2(O)c3ccccc3C=Cc3ccccc32)C1` (centres undefined), the activity change, negative = inhibition was inactive: 5.99%. With `Cc1cc(C(=O)NCC2(N3CCCCC3)CCCCC2)ccc1[N+](=O)[O-]` the figure was inactive: -4.73%.

These data come from PubChem BioAssay AID540317 (National Center for Advancing Translational Sciences (NCATS), 2011).
